Laboratory results: patent US20220153807A1 (published 2022)

Molecular target: T1, NY-ESO-1 (modified peptide) peptide on HLA-A*02:01 (human)
T1 peptide: SLLMWITQV
Assay: activation reporter or marker

B1: CT139, MAGE-A3 pep1 TCR (both alpha and beta chains) (TCR, V domains shown)
Valpha: AQSVDQPDAHVTLSEGASLELRCSYSYSAAPYLFWYVQYPGQSLQFLLKYITGDTVVKGTKGFEAEFRKSNSSFNLKKSPAHWSDSAKYFCALEGPDTGNYKYVFGAGTRLKVIA
Vbeta: DAGVTQTPRHEVAEKGQTIILKCEPVSGHNDLFWYRQTKIQGLELLSYFRSKSLMEDGGAFKDRFKAEMLNSSFSTLKIQPTEPRDSAVYLCASSFGTASAETLYFGSGTRLTVL
Question: Does B1 bind?
Answer: Result: no recognition
